{
  "source": "PubChem BioAssay AID1053188",
  "about": "(Broad Institute, 2014)",
  "note": "The entries are a selection whose mix differs from that of the whole data set. Some tests of the compounds listed are not included; inactive here does not mean inactive elsewhere. Activity calls are given as the source filed them.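 Rule for the calls: active = mean inhibition of at least 50% with a set share of replicates also reaching that level; inconclusive = no clear call, values can overlap the other calls; inactive = the rest.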",
  "data": [
    {"test": "inhibitors of CD40-induced NF-kB signaling, primary screen, BL2 cells, luciferase reporter, single point (AID 1053188);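 note: 0% = neutral control wells and 100% = IKK inhibitor VII at 50 µM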", "conditions": "CD40L-induced, 4 h, at 10 µM, hits give high values", "values": [
      {"compound": "C=CCN1CCN(CCOC(=O)C(O)(c2ccccc2)c2ccccc2)CC1", "inhibition": "inactive: 4.03%"},
      {"compound": "CN(C)C1CCCC1OC(=O)C(O)(c1ccccc1)c1ccccc1", "note": "(centres undefined)", "inhibition": "inactive: 11%"},
      {"compound": "CN1[C@@H]2CC[C@H]1CC(OC(=O)C(O)(c1ccccc1)c1ccccc1)C2", "note": "(some centres undefined)", "inhibition": "inactive: 2.91%"},
      {"compound": "C=C(C)C#CC(O)(C(=O)OC1CCN(C)CC1)c1ccccc1", "note": "(centres undefined)", "inhibition": "active: 81.7%"}
    ]}
  ]
}
